Literature values as cited in article PMC11990924, “Inhibition of Tyrosinase and Melanogenesis by Carboxylic Acids: Mechanistic Insights and Safety Evaluation” (Molecules, 2025).

System: mice
Settings: cited from earlier work

## CC(O)C(=O)O (stereo not shown) [lactic acid]
  oral LD50: 4875 mg/kg
